This experiment deals with Histamine H1 receptor (Homo sapiens, UniProt P35367).

Amino acid sequences for entries named in this document (tags omitted).
UniProt P35367, whole entry: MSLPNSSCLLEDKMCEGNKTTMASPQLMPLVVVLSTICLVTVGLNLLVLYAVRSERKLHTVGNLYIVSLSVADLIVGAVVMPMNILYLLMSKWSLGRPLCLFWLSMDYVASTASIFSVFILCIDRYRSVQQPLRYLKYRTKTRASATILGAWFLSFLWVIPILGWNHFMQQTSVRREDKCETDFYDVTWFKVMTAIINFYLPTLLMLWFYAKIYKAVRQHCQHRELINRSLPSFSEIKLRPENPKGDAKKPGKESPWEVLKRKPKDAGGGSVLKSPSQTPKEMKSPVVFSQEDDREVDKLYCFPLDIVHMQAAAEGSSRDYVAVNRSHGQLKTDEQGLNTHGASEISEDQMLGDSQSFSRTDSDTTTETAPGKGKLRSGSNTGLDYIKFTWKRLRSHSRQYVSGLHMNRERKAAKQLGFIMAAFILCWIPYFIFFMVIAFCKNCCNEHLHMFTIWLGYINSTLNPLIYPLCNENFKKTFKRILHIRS

Several values for one entry are separate records, joined by “and”; a condition that tells them apart may be missing. Equal entries are not always repeated.

Take `CN1CCN(C2=c3ccccc3=Nc3ccc(Cl)cc3N2)CC1` [6-chloro-10-(4-methylpiperazin-1-yl)-2,9-diazatricyclo[9.4.0.0^{3,8}]pentadeca-1,3(8),4,6,10,12,14-heptaene]: the Ki was 1.63 nM and 1.54 nM.

As usually defined, the Ki is a measure of affinity in units of concentration, obtained from inhibition or displacement.

The values are drawn from BindingDB's records for doi:10.1124/jpet.302.1.328 (University of North Carolina at Chapel Hill, 2002).
